In article PMC7927569 (Journal of the American Chemical Society, 2020):

Test: Size exclusion chromatography
Format: physicochemical
Conditions: 1.0 mg/mL peptide, 50 mM Tris pH 7.4, 150 mM NaCl, Superdex 75 Increase 10/300

H-DAEFRHDSGYEVHH-NH2 [peptide 2]
SEC elution volume, peak assigned to monomer: 17.6 mL
